The target in the experiment is MAO-A enzyme (Homo sapiens, UniProt P21397). The experiment can be described thus: MAO-A enzyme inhibition, fluorometric method. The class given is biochemical.

The chains behind the UniProt entries cited, without tags or fusion partners.
UniProt P21397, whole entry: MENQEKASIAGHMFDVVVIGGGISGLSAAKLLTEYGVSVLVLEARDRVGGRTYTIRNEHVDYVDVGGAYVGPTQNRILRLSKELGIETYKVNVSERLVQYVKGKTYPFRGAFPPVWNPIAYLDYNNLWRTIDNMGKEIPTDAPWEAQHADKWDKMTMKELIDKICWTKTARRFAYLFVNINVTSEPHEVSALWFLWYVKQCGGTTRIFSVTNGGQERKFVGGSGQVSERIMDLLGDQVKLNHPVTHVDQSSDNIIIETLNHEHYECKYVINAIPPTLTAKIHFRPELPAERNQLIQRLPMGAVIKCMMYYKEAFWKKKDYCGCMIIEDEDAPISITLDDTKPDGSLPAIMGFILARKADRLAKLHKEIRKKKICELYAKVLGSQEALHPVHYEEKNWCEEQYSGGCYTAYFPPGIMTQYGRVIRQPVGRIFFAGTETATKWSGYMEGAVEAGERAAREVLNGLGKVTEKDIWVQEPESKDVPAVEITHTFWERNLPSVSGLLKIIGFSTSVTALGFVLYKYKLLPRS

The structures appear in SMILES notation.

Consider one molecule from paper PMC10938434, “Design, Synthesis, and Biological Effect Studies of Novel Benzofuran–Thiazolylhydrazone Derivatives as Monoamine Oxidase Inhibitors” (ACS Omega, 2024).

`C#CCN(C)CCCOc1ccc(Cl)cc1Cl` [Clorgyline, clorgyline, reference compound]: under “10^–3 M”, the “MAO-A % inhibition 10^–3 M” value came out at 96.94 ± 1.25%. The “MAO-A % inhibition 10^–4 M” value (10^–4 M) is given as 91.31 ± 1.31%.
